Experimental data taken from paper PMC11791039 (2024).

Assays:
FRB/FKBP1A interaction = FRB/FKBP1A interaction (Homo sapiens, UniProt P42345+P62942); details: NIN/IC format; Rapa 300 nM; replicates 1-4; ref previous study; cited from earlier work
[1] = target: Δ11S (third component of tri-part Nanoluciferase, tNLuc); experiment: luminescence titration of tri-part NanoLuc complementation

Molecule | ELISA_CIC signal (Fig. EV1C) (FRB/FKBP1A interaction) | Kd [1] [µM]
CO[C@H]1C[C@@H]2CC[C@@H](C)[C@@](O)(O2)C(=O)C(=O)N2CCCC[C@H]2C(=O)O[C@H]([C@H](C)C[C@@H]2CC[C@@H](O)[C@H](OC)C2)CC(=O)[C@H](C)/C=C(\C)[C@@H](O)[C@@H](OC)C(=O)[C@H](C)C[C@H](C)/C=C/C=C/C=C/1C [rapamycin, Rapamycin] | 124.999 | –
β10-β9 tandem tNLuc peptide fused to recombinant protein G (C2 domain) and His tag | – | 0.0113
